Laboratory results from patent US10376456B2, “Concentrated and self-preserving compositions of mild surfactants for transparent and skin-pH personal care formulations” (GALAXY SURFACTANTS LTD., priority 2015, dated 2019).

Test: Critical micelle concentration (CMC)
Type: physicochemical
From the text: It is well established that in case of surfactants, lower the CMC value, milder the surfactants. Ionic surfactant molecules interact with proteins through charge-charge interaction since the charge density on the head group is high. Whenever aggregates are formed the charge density of micelle is much lesser as the charge gets spread over the large micelle. […] It can be seen from Table 2 that CMC of anionic sodium lauryl sulphate (SLS) is the highest and zwitterionic (electrically neutral) cocoamidopropyl (CAPB) is the lowest.

potassium cocoyl glutamate
CMC: 1.01 mM/liter
